The values below come from publication PMC4266452, “Prediction of Thorough QT study results using action potential simulations based on ion channel screens” (Journal of Pharmacological and Toxicological Methods, 2014).

“And” between values parts separate entries of the source, which are not always exact repeats. Identical values can stand only once. Like-named read-outs stand apart in the source and are kept apart here.

For series [1] the following is noted: ref Gintant (2011), cited from earlier work.
The conditions of series [2]: ref Gintant (2011); cited from earlier work.
Series [3] can be described thus: Plasma concentration (Cmax) during the TQT study, total and calculated free. The conditions noted are these: for Cmax TOTAL: calculated from ng/mL and molecular weight.

On to Maraviroc, for which the “Cmax TOTAL” value in series [1] (Cmax high) was 373.00 ng/mL; in series [1] (Cmax low), 95.00 ng/mL; in series [3] (Cmax high), 726.25 nM; in series [3] (Cmax low) it was 184.97 nM. Besides, the “PPB (percent plasma binding)” value in series [2] is reported as 76% PPB. Further, the figures for the Free plasma concentration in series [3] (Cmax high) and in series [3] (Cmax low) were 175.2 nM and 44.39 nM, respectively. In addition, the “Cmax FREE” value in series [3] (Cmax high, calculated with PPB) is 90.00 ng/mL; in series [3] (Cmax high, calculated with PPB and molecular weight) it was 175.23 nM; in series [3] (Cmax low, calculated with PPB) it was 22.80 ng/mL; in series [3] (Cmax low, calculated with PPB and molecular weight), 44.39 nM; in series [3] (third line below Cmax high, not labelled), 219 ng/mL and 426.37 nM.
